{
  "source": "ChEMBL document CHEMBL3639292",
  "about": "“17-hydroxy-19-nor-21-carboxylic acid-steroid Œ=-lactone derivative, use thereof, and medicament containing the derivative” (2015)",
  "molecular_target": "T1, Progesterone receptor (Homo sapiens, UniProt P06401)",
  "T1 sequence (P06401 whole entry)": "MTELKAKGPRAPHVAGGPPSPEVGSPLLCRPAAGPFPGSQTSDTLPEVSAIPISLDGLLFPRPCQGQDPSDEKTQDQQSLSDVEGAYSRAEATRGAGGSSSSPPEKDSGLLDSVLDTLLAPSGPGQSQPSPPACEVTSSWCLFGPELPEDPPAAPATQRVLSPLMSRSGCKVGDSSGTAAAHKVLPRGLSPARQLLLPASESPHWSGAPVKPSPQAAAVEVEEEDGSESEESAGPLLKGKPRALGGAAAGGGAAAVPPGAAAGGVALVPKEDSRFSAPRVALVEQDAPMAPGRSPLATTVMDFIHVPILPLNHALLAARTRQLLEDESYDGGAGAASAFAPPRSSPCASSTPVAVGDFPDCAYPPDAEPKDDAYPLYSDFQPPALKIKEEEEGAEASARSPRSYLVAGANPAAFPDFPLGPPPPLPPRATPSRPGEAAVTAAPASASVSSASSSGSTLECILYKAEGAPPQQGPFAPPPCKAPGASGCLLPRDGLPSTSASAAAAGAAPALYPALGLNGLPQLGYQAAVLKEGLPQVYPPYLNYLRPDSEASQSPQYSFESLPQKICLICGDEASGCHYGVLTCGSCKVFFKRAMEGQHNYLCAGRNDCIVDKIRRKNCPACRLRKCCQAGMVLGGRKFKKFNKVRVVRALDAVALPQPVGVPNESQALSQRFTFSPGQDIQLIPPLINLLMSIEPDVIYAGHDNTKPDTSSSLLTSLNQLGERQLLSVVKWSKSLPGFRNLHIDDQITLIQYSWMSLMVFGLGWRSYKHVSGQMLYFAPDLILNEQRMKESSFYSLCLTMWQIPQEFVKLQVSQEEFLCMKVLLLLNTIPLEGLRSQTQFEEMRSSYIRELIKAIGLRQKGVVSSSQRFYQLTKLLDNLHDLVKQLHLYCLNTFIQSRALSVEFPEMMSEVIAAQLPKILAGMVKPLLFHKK",
  "assay": "Binding Assay: Using cytosol from progesterone receptor-expressing insect cells (Hi5), competitive binding to the progesterone receptor was determined from the ability to displace 3H-progesterone as reference substance from the receptor.",
  "data": [
    {"smiles": "CC[C@]12CC[C@H]3[C@@H](CC4(CC4)C4=CC(=O)CC[C@@H]43)[C@@H]1CC[C@@]21C=CC(=O)O1", "values": [
      {"measurement": "IC50", "result": 49, "unit": "nM"}
    ]},
    {"smiles": "C[C@]12CC[C@H]3[C@@H](CC4(CC4)C4=CC(=O)CC[C@@H]43)[C@@H]1CC[C@@]21C=CC(=O)O1", "values": [
      {"measurement": "IC50", "result": 44, "unit": "nM"}
    ]}
  ]
}
